## Measured affinities in a library of Ab-95 light chain variants

Target: peptide PDVDLGDISGINAS, taken from heptad repeat 2 (HR2) of SARS-CoV-2 spike.

Parent scFv Ab-95: VH joined to VL by a (GGGGS)3 linker. Changes lie in the light chain CDRs alone.
VH: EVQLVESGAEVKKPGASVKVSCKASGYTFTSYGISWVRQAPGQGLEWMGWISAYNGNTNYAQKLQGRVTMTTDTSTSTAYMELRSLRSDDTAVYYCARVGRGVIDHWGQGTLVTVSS
VL: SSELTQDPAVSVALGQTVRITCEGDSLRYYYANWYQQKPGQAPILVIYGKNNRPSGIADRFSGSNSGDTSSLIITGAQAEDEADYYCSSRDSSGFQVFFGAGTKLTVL

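The library (AAYL52) carries one to three amino acid substitutions per variant, with no insertions or deletions. Affinity was read by AlphaSeq, a pooled yeast mating assay with surface-displayed partners. After mating in shaken culture at 30 °C for 16 h, diploids were selected and their barcode pairs sequenced. Read counts were normalised to the haploid input and turned into Kd by a linear fit to BCL2-family pairs of known affinity, for each replicate. Each pool was mated in three replicate cultures.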

Positions count from residue 1 of the parent VL; Y30S puts S in place of Y.
Scale: log10 of Kd in nM, estimated from mating counts; low values are strong binders.
Averages over replicates are reported, and they cover detected replicates only.
A pair that was not seen in that replicate is written "ND"; this usually means weak binding, but a binder can also be missed.
Entries are sorted by rising average, undetected variants last.
Three control strains display no target. For library AAYL52, 28% of the pairings with them gave a signal, with a median of 3.91 and one signal in twenty below 2.90, so weak values seen in few replicates may be background.

The variant Y30S/R53L/G94D showed 1.23, 1.14, 0.32 (mean 0.90).
The variant D25I/D91M showed 2.07, 2.12, 1.15 (mean 1.78).
The variant R28A/F95Y showed 2.03, 2.03, 1.52 (mean 1.86).
The variant E23R/P54G/S92F showed 2.67, 2.32, 2.53 (mean 2.51).
The variant S26P/D91H/F98P showed 2.73, 2.25, 2.76 (mean 2.58).
The variant S89G/R90M/V97Y showed 2.48, 2.56, 2.82 (mean 2.62).
The variant S92I/S93I/F98R showed 2.47, 2.71, 2.83 (mean 2.67).
The variant D25I/L27V/G94M showed ND, 3.15, 2.46 (mean 2.81).
The variant G49D/S89M/F98I showed 3.24, 3.13, 2.52 (mean 2.96).
The variant Y31G/P54E/D91F showed 2.38, 3.85, 2.90 (mean 3.04).
The variant S26E/Y30T/S93Q showed 3.21, 3.08, 3.30 (mean 3.20).
The variant P54R/D91L/V97D showed 3.26, ND, ND.
The variant P54N/D91H showed 3.47, 3.25, 3.35 (mean 3.36).
The variant K50S/P54E/S88T showed 3.44, ND, ND.
The variant S26I/P54D/S93V showed ND, 4.11, 3.32 (mean 3.71).
The variant E23L/R53S/S88H showed 3.30, 3.83, 4.04 (mean 3.72).
The variant N52T/D91N/Q96E showed 3.75, ND, ND.
The variant Y30A/G49C/F98I showed 3.42, 4.20, ND (mean 3.81).
The variant N33C/N52W/F95C showed ND, 4.17, 3.62 (mean 3.89).
The variant L27N/S92D/V97K showed 4.61, ND, 3.51 (mean 4.06).
The variant A32F/R53Y/V97T showed 4.16, ND, ND.
The variant R53L/P54N/D91T showed 3.74, 4.25, 4.61 (mean 4.20).
The variant G24L/S55G/S88L showed ND, 4.21, ND.
The variant G24N/R28T/Y30M showed ND, 4.90, 3.66 (mean 4.28).
The variant N33P/D91F/S92L showed 4.30, ND, ND.
The variant D25N/N33T/N52F showed ND, 4.57, ND.
The variant Y30M/Y31L/G94N showed ND, 4.90, ND.
The variant G24V/Y29D/P54F showed ND, ND, ND.
The variant D91C/S93K/V97S showed ND, ND, ND.
The variant N51P/S55A/S89M showed ND, ND, ND.
The variant D25V/N33H/K50F showed ND, ND, ND.

The opening 2 entries, copied out:

The variant Y30S/R53L/G94D showed 1.23, 1.14, 0.32 (mean 0.90).
The variant D25I/D91M showed 2.07, 2.12, 1.15 (mean 1.78).

Reference: Engelhart et al. 2022, doi:10.1038/s41597-022-01779-4. File: FLAb, binding data.